Patent publication US9663525B2, “Pyrazolopyrimidinyl inhibitors of ubiquitin-activating enzyme” (Millennium Pharmaceuticals, Inc., priority 2012, dated 2017)

Protein sequences, listed by entry. Tags and fused reporters are not part of them. Lines headed by an entry give the natural chain unless they say otherwise; changes in a name come on top.
UniProt P22314: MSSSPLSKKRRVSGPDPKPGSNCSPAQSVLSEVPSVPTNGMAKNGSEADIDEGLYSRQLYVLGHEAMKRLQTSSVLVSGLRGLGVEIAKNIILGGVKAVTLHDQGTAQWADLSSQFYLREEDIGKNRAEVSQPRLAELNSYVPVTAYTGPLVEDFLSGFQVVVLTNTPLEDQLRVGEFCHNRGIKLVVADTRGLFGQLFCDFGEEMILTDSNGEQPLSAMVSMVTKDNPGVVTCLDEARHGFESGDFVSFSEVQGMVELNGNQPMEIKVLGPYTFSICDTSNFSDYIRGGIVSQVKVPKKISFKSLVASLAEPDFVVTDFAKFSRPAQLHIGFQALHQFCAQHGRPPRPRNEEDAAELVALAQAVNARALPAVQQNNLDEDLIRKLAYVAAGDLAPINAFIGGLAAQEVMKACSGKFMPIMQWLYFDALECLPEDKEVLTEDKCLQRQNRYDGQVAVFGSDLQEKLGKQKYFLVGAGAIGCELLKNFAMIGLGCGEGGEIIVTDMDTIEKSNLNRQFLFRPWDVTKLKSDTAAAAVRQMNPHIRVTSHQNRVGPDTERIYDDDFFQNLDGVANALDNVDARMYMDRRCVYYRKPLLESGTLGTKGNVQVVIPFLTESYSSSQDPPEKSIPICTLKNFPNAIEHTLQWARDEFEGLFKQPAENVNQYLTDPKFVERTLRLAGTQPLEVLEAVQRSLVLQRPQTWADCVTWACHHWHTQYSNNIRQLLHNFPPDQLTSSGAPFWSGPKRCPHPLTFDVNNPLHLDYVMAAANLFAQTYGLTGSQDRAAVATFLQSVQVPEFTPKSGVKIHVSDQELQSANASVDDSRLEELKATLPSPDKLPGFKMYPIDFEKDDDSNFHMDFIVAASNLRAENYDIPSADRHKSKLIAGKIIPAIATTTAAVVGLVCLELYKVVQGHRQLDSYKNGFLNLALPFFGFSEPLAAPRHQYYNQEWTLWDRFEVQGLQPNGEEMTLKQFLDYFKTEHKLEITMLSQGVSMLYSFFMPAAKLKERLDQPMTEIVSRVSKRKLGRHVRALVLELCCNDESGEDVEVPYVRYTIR

Target: recombinant human UAE (Homo sapiens (Human), UniProt P22314)
Assay: Ubiquitin Activating Enzyme (UAE) HTRF assay, human UAE
Settings: 0.111 μM compound

For `NS(=O)(=O)OC[C@H]1C[C@@H](Nc2ccnc3cc(-c4cccc5c(F)cccc45)nn23)[C@H](O)[C@@H]1O` [Compound I-105, (s.e.)-((1R,2R,3S,4R)-4-(2-(5-fluoronaphthalen-1-yl)pyrazolo[1,5-a]pyrimidin-7-ylamino)-2,3-dihydroxycyclopentyl)methyl sulfamate], the “% inhibition @0.111 μM” value was 100%.
With `NS(=O)(=O)OC[C@H]1C[C@@H](Nc2ccnc3cc(-c4cccc5c(F)cccc45)nn23)[C@H](O)[C@@H]1O` (relative stereo) [Compound I-097, (rac)-((1R,2R,3S,4R)-4-(2-(5-fluoronaphthalen-1-yl)pyrazolo[1,5-a]pyrimidin-7-ylamino)-2,3-dihydroxycyclopentyl)methyl rel-sulfamate] the “% inhibition @0.111 μM” value was 100%.
